Consider two compounds from US7244744B2, “Piperidines” (Icagen, Inc., priority 2001, dated 2007).

Chains of the proteins cited; added tags and fusions are not shown.
UniProt Q9Y5Y9, whole entry: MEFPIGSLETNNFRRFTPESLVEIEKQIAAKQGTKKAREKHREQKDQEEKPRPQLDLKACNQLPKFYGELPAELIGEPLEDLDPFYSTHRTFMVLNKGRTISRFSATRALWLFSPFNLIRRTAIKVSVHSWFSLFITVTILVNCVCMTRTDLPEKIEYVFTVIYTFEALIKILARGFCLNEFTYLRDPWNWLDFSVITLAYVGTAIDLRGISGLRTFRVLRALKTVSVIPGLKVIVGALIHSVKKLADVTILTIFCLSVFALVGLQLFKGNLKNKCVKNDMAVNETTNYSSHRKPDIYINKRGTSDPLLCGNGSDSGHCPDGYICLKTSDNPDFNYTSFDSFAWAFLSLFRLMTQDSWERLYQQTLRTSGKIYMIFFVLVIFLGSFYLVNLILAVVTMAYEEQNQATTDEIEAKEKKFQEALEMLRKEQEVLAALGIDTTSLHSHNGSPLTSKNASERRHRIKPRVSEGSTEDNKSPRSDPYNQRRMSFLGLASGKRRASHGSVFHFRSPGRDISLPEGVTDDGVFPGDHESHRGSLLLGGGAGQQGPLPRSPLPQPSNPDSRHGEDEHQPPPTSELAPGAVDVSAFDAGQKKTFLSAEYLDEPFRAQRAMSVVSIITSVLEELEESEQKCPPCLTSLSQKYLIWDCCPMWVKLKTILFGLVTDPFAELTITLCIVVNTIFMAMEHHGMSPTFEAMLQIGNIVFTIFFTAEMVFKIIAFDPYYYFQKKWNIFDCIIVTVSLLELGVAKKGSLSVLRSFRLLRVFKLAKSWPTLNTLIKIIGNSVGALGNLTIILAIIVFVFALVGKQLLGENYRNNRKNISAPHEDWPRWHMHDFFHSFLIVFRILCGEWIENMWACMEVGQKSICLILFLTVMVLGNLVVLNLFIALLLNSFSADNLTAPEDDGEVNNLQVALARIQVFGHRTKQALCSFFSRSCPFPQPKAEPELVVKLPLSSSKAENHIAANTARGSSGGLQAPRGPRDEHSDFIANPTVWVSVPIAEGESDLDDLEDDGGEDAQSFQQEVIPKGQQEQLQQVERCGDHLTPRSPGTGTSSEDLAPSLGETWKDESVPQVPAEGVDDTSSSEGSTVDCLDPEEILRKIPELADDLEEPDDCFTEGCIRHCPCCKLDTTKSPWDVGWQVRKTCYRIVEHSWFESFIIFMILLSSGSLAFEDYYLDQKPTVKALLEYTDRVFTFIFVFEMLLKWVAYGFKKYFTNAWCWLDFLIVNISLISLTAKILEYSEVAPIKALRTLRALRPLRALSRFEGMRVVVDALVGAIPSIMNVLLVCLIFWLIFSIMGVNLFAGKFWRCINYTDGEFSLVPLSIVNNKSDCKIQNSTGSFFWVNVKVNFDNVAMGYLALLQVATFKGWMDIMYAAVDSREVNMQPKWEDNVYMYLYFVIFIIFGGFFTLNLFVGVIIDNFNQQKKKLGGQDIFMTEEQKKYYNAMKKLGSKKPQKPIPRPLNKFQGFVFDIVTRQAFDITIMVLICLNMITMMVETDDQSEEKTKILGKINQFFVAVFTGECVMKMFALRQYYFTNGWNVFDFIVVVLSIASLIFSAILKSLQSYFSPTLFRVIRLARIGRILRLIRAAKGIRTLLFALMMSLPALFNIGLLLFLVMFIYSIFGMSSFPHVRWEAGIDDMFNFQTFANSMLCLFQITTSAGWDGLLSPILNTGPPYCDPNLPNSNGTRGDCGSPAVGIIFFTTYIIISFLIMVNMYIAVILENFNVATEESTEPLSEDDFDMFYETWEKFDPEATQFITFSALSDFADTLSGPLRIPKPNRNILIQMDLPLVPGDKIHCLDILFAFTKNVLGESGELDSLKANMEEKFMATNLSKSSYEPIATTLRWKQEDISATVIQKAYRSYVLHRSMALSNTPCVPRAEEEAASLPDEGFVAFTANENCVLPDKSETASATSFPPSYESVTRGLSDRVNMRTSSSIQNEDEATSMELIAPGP

The test addresses PN3 (Homo sapiens, UniProt Q9Y5Y9). Kind of test: 14C Guanidinium Ion Influx Binding Assay (flux assay). Particulars: read-out: Activity in Flux Assay, activity towards PN3, PN3 stably expressed in a host cell line, deltamethrine 10 μM. On the procedure:
1.1 ^14C Guanidinium Ion Influx Binding Assay
PN3 stably expressed in a host cell line were maintained in DMEM with 5% fetal bovine serum and 300 μg/ml G-418. The cells were subcultured and grown to confluence in 96-well plates 24-48 h before each experiment. After the growth medium was removed, the cells were washed with warm buffer (25 mM Hepes-Tris, 135 mM choline chloride, 5.4 mM potassium chloride, 0.98 mM magnesium sulfate, 5.5 mM glucose, and 1 mg/ml BSA, pH 7.4) and incubated in buffer on a 36° C. slide wanner for approximately 10 minutes. Various concentrations of the test compounds or standard sodium channel blockers (10 μM) and then deltamethrine (10 μM) were added to each well. After the cells were exposed to deltamethrine for 5 minutes, 5 μM of ^14C-guanidinium was added, incubated with the radioligand (30-60 min), washed with ice-cold buffer, and dissolved in 0.1N sodium hydroxide. The radioactivity and the protein concentration of each cell lysate were determined by liquid scintillation counting and the protein assay using Pierce BCA reagent.

Some compounds may have been tested in ways that are not shown here.

As for `CCCCc1ccc(CN2CCC(n3c(=O)[nH]c4ccccc43)CC2)cc1`, the IC50 is 0.1 to 4 µM. `Cn1c(=O)n(C2CCN(Cc3ccccc3)CC2)c2ccccc21`: the IC50 lay in the range of 4.1 to 10 µM.
